From US10428106B2, “Phosphate replacement mRNA cap analogs” (ModernaTX, Inc., priority 2015, dated 2019)

Sequences of proteins named here, by UniProt entry; tags and fusion partners are left off. Residues count along the entry.
UniProt P06730, 32-217: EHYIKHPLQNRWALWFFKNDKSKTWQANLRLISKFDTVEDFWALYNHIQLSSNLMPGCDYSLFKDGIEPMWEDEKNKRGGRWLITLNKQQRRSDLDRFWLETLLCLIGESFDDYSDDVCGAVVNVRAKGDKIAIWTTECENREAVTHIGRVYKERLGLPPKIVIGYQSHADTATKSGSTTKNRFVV

Target: T1, eIF4E (Homo sapiens, UniProt P06730)
T1 construct: HNAVIpeptTEVeIF4E 32-217(Biotinylated)
Assay: Binding affinities to eIF4E using surface plasmon resonance (SPR)

Cn1c[n+]([C@@H]2O[C@H](COP(=O)(O)OP(=O)([O-])OP(=O)(O)OC[C@H]3O[C@@H](n4cnc5c(=O)[nH]c(N)nc54)[C@H](O)[C@@H]3O)[C@@H](O)[C@H]2O)c2nc(N)[nH]c(=O)c21 [Cap0 (i.e., m7GpppG), m7GpppG]
Kd (SPR value repeated in Table 4): 2000 nM | Kd (SPR, Biacore 3000, captured biotinylated eIF4E, Table 3): 2000 nM | koff (SPR, off-rate from dissociation phase, Table 3): 0.8 s⁻¹
